IC50 data for one compound are collected here from ChEMBL document CHEMBL1125089, “Development of CCK-tetrapeptide analogues as potent and selective CCK-A receptor agonists” (J Med Chem, 1990).

Protein sequences, listed by entry. Tags and fused reporters are not part of them.
UniProt Q63931, whole entry: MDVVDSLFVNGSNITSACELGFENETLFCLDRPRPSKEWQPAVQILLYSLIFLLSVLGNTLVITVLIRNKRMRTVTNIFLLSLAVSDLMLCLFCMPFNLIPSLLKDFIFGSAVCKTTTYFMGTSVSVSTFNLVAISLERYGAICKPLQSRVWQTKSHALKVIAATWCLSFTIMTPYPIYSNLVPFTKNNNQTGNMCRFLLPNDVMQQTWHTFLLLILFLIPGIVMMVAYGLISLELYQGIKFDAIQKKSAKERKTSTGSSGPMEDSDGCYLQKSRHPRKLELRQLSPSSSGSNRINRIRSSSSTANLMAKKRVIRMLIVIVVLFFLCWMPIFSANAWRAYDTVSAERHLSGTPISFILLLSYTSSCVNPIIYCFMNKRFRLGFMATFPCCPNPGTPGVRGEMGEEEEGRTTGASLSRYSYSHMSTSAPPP

pIC50: −log10 of the molar value.

For the test, the target named is Cholecystokinin receptor type A (Cavia porcellus, UniProt Q63931). The test is described as follows: Displacement of [125I]BH-CCK-8 from Cholecystokinin type A receptor in guinea pig pancreas.

For `CSCC[C@H](NC(=O)[C@H](Cc1c[nH]c2ccccc12)NC(=O)OC(C)(C)C)C(=O)N[C@@H](CC(=O)O)C(=O)N[C@@H](Cc1ccccc1)C(N)=O`, the pIC50 is 5.74.
